Values of other authors, collected in US8383817B2, “Benztropine compounds and uses thereof” (The United States of America, as represented by the …, priority 2005, dated 2013).

Biological target: T1, NET (Rattus norvegicus, UniProt Q9WTR4)
T1 construct: rows headed: NET Ki; NET Ki
Conditions: read-out: NET Ki; data from Katz et al. 2001, included for reference; cited from earlier work

For `CN1[C@@H]2CC[C@H]1C[C@@H](OC(c1ccc(Cl)cc1)c1ccc(Cl)cc1)C2` [4,4-diCl BZT, 3α-(bis-Cl-phenylmethoxy)tropane, reference compound], the Ki is listed as 2980 nM.
